Measured values as given in US20030125363A1, “Riluzole and alpha-tocopherol combination” (priority 1998, published 2003).

Test system: malondialdehyde

Nc1nc2ccc(OC(F)(F)F)cc2s1 [RILUZOLE AND PLACEBO, 2-amino-6-trifluoromethoxybenzothiazole]
Δ M3-M0 (plasma malondialdehyde) (change of mean value between inclusion and 3 months): 0.22 ± 0.40 µM
Concentration at M3 (plasma malondialdehyde) (mean value, at 3 months): 2.72 ± 0.40 µM
Concentration at M0 (plasma malondialdehyde) (mean value, baseline at inclusion M0): 2.94 ± 0.40 µM
